Consider one compound from patent publication US12565504B2, “Spirocyclic O-glycoprotein-2-acetamido-2-deoxy-3-d-glucopyranosidase inhibitors” (BIOGEN MA INC., priority 2019, dated 2026).

Data set [1] concerns MDR1-MDCK cell monolayers. The experiment in a line: MDR1-MDCK Efflux Ratio Assay. To be noted: MDR1-MDCK cells, 2 hr, pH 7.4.
Data set [2] in a line: Rat Liver Microsome Stability Assay. It counts as in vitro ADME. To be noted: rat liver microsomes 0.5 mg/mL, compound 1 μM; Qh 55 mL/minute/kg.

SMILES strings stand for the structures.

For `CC(=O)Nc1nc(F)c(CN2C[C@]3(Cc4ncccc4O3)C[C@@H]2C)s1`, the MDR1-MDCK Efflux Ratio (B-A/A-B) in data set [1] turned out to be 11. The “RLM % Qh (%)” value in data set [2] is recorded as 72%.
